In patent publication US20230165831A1, “METHOD AND COMPOSITION FOR RENDERING CANCER CELLS SUSCEPTIBLE TO TREATMENT BY TARGETED ONCOGENETIC DRIVERS” (IMPACT BIOLIFE SCIENCE, INC., priority 2021, published 2023):

Assays:
[1] = test system: ovarian cancer line SK-OV3 cells; assay: CTG (CellTiter-Glo) cell viability assay, 6×6 combo matrix, 72 h, SK-OV-3;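 also: luminescent signal read after CellTiter-Glo addition, cells exposed to compounds for 72 h at 37 °C under 5% CO2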
[2] = test system: lung adenocarcinoma line A549 cells; assay: CTG (CellTiter-Glo) cell viability assay, 6×6 combo matrix, 72 h, A549;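 also: luminescent ATP readout with CellTiter-Glo after compound exposure, used to assess growth inhibition and combination synergy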
[3] = test system: colorectal cancer line HT29 cells; assay: CTG (CellTiter-Glo) cell viability assay, 6×6 combo matrix, 72 h, HT29;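 also: cells exposed to compounds for 72 hours at 37 °C under 5% CO2, then viability read as luminescence after adding CellTiter-Glo Reagent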
[4] = test system: pancreatic cancer line Capan-1 cells; assay: CTG (CellTiter-Glo) cell viability assay, 6×6 combo matrix, 72 h, Capan-1; assay type: cell-based
Procedure: To measure the cell inhibition effect of compounds and synergy effect of test articles on ten (10) cell lines using standard CTG assay.
b. A549, T47D, SK-OV-3, MKN45, SK-Hep-1, HT-29, Capan-1, 786-O and LNCaP cell line, for compounds and vehicle groups, the seeding density of cell lines is 3000 cells/80 µL per well. For blank groups, add 100 µL medium. For PBS groups, add 100 µL PBS.
8) Incubate the U87MG, A549, T47D, SK-OV-3, MKN45, SK-Hep-1, HT-29, Capan-1, 786-O and LNCaP cells overnight at 37° C./5% CO2.
5) Incubate the plates at 37° C./5% CO2 for 72 hours.
6) Read plates in Envision.

[5] = test system: gastric cancer line MKN45 cells; assay: CTG (CellTiter-Glo) cell viability assay, 6×6 combo matrix, 72 h, MKN45;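 also: MKN45 cell viability read as CellTiter-Glo luminescence after 72 h culture at 37 °C under 5% CO2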
[6] = test system: gastric cancer line MKN45 cells;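 also: MKN45 cell viability read as CellTiter-Glo luminescence after 72 h culture at 37 °C under 5% CO2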
[7] = test system: kidney cancer line 786-O cells; assay: CTG (CellTiter-Glo) cell viability assay, 6×6 combo matrix, 72 h, 786-O;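 also: luminescence read-out after adding CellTiter-Glo reagent, with cells incubated at 37 °C under 5% CO2 during compound exposure, part of a ten cell line synergy study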

## COc1cccc2c1C(=O)c1c(O)c3c(c(O)c1C2=O)C[C@@](O)(C(=O)CO)C[C@@H]3O[C@H]1C[C@H](N)[C@H](O)[C@H](C)O1 [doxorubicin]
[1]; Dox 16 nM only (myricetin matrix)
  Relatively Cell inhibition of vehicle control(%): 1.98%
[1]; Dox 80 nM only (LB-1 matrix)
  Relatively Cell inhibition of vehicle control(%): 40.49%
[1]; Dox 80 nM only (myricetin matrix)
  Relatively Cell inhibition of vehicle control(%): 36.36%
[1]; Dox 400 nM only (LB-1 matrix)
  Relatively Cell inhibition of vehicle control(%): 72.01%
[1]; Dox 400 nM only (myricetin matrix)
  Relatively Cell inhibition of vehicle control(%): 69.42%
[1]; Dox 2000 nM only (LB-1 matrix)
  Relatively Cell inhibition of vehicle control(%): 91.55%
[1]; Dox 2000 nM only (myricetin matrix)
  Relatively Cell inhibition of vehicle control(%): 91.18%
[1]; Dox 10000 nM only (LB-1 matrix)
  Relatively Cell inhibition of vehicle control(%): 84.35%
[1]; Dox 10000 nM only (myricetin matrix)
  Relatively Cell inhibition of vehicle control(%): 85.70%
[2]; Dox 16 nM only
  Relatively Cell inhibition of vehicle control(%): 17.90%
[2]; Dox 80 nM only
  Relatively Cell inhibition of vehicle control(%): 45.26%
[2]; Dox 400 nM only
  Relatively Cell inhibition of vehicle control(%): 61.50%
[2]; Dox 2000 nM only
  Relatively Cell inhibition of vehicle control(%): 95.63%
[2]; Dox 10000 nM only
  Relatively Cell inhibition of vehicle control(%): 94.29%
[3]; Dox 16 nM only (Myr 0)
  Relatively Cell inhibition of vehicle control(%): -0.43%
[3]; Dox 80 nM only (Myr 0)
  Relatively Cell inhibition of vehicle control(%): 28.95%
[3]; Dox 400 nM only (Myr 0)
  Relatively Cell inhibition of vehicle control(%): 52.68%
[3]; Dox 2000 nM only (Myr 0)
  Relatively Cell inhibition of vehicle control(%): 91.27%
[3]; Dox 10000 nM only (Myr 0)
  Relatively Cell inhibition of vehicle control(%): 82.88%
[4]; Dox 16 nM only
  Relatively Cell inhibition of vehicle control(%): 14.70%
[4]; Dox 80 nM only
  Relatively Cell inhibition of vehicle control(%): 36.03%
[4]; Dox 400 nM only
  Relatively Cell inhibition of vehicle control(%): 66.58%
[4]; Dox 2000 nM only
  Relatively Cell inhibition of vehicle control(%): 86.15%
[4]; Dox 10000 nM only
  Relatively Cell inhibition of vehicle control(%): 76.46%
[5]; Dox 16 nM only (Myr 0)
  Relatively Cell inhibition of vehicle control(%): 9.08%
[5]; Dox 80 nM only (LB-1 0)
  Relatively Cell inhibition of vehicle control(%): 28.50%
[5]; Dox 80 nM only (Myr 0)
  Relatively Cell inhibition of vehicle control(%): 32.23%
[5]; Dox 400 nM only (LB-1 0)
  Relatively Cell inhibition of vehicle control(%): 65.75%
[5]; Dox 400 nM only (Myr 0)
  Relatively Cell inhibition of vehicle control(%): 71.19%
[5]; Dox 2000 nM only (LB-1 0)
  Relatively Cell inhibition of vehicle control(%): 95.07%
[5]; Dox 2000 nM only (Myr 0)
  Relatively Cell inhibition of vehicle control(%): 93.78%
[5]; Dox 10000 nM only (LB-1 0)
  Relatively Cell inhibition of vehicle control(%): 73.01%
[5]; Dox 10000 nM only (Myr 0)
  Relatively Cell inhibition of vehicle control(%): 81.99%
[6]
  inhibition: 2.79%
[7]; Dox 80 nM only (LB-1 0)
  Relatively Cell inhibition of vehicle control(%): 24.26%
[7]; Dox 400 nM only (LB-1 0)
  Relatively Cell inhibition of vehicle control(%): 62.24%
[7]; Dox 2000 nM only (LB-1 0)
  Relatively Cell inhibition of vehicle control(%): 77.77%
[7]; Dox 10000 nM only (LB-1 0)
  Relatively Cell inhibition of vehicle control(%): 79.94%
